Experimental data as given in patent US9284283B2, “Macrocyclic compounds for modulating IL-17” (ENSEMBLE THERAPEUTICS CORPORATION, priority 2012, dated 2016).
Blank lines part the entries; values can stand above or below the compound they belong to.

Amino acid sequences for entries named in this document (tags omitted). Residues count along the entry.
UniProt Q16552, 20-155 limits assumed: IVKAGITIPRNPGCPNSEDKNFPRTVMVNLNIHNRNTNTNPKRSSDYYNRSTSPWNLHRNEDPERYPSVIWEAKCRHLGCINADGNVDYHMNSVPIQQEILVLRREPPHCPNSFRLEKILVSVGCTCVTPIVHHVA

Tests used:
[1] = target: recombinant human IL17a (binding to its receptor IL17R) (Homo sapiens, UniProt Q16552); assay: IL-17 competition ELISA I (IL17a coated, IL17R/Fc binding); conditions: read-out: ELISA I
Method: ELISA I: The ability of the compounds to block binding of IL17a to its receptor, IL17R, was analyzed in a competition ELISA format. High binding 96-well plates (Costar #9018) were coated with 20 nM of recombinant human IL17a (R&D Systems #317-ILB) in PBS (0.64 μg/mL), 100 μL/well, for 30 min at 37′C followed by 5 min at 4′C. Plates were then washed in PBST (PBS/0.05% Tween-20) on a plate washer, (Biotech EL-450) blocked with protein-free blocking buffer (Thermo Scientific #37573) in 250 μL/well for 30 min on shaker at room temperature, and then washed again. Compound dilutions prepared in PBST were added into the wells in duplicates followed by the addition of IL17R/Fc (R&D Systems #177-IR) at a final concentration of 12 nM. Plates were then incubated for 30 min at room temperature on the shaker. Wells with no compound served as a positive “no competitor” control, while wells with no IL17R/Fc and no compound served as a blank negative control. After an additional PBST wash, 50 ng/mL HRP-conjugated goat anti-human Fc IgG (KPL #04-10-20) was added to the plate for 30 min at room temperature, followed by PBST wash and addition of SureBlue™ TMB (KPL #52-00-03). After the sufficient color development, the reaction was fixed by the addition of 100 μL/well 0.5 N HCl and absorbance was measured at 450 nm on Biotek plate reader.
(§1) Data were processed using BioAssay Enterprise v10.1.4 (CambridgeSoft) software. Linear OD λ450 were plotted against log concentration (x) and fitted to a 4-parameter logistic equation. IC50 was calculated using positive ‘no competitor’ control data as an upper limit and blank control as a lower limit in each assay.

[2] = target: biotinylated human IL-17 (binding to IL17R/Fc) (Homo sapiens, UniProt Q16552); assay: IL-17 competition ELISA II (captured IL17R/Fc, biotinylated IL-17); conditions: read-out: ELISA II
Method: In this version, a high binding 96-well plate (Costar #9018) was coated with 20 nM of goat anti-human IgG (KPL 01-10-02) in PBS, 100 μL/well, for 30 min at 37° C. followed by 5 min at 4° C. The plate was then washed in PBST (PBS/0.05% Tween-20) on a plate washer, (BioTek ELx450) then blocked with protein-free blocking buffer (Thermo Scientific #37573) in 250 μL/well for 30 min on a shaker at room temperature, and then washed again. IL17R/Fc (R&D Systems #177-IR; 10 nM in PBST, 100 μL/well) was then added to all wells. The plate was then incubated for 30 minutes at room temperature on the shaker.
While the receptor capture step was underway, compound dilutions were prepared in PBST to a concentration of 1 μM in 1.5 mL tubes. After the receptor capture step, the plate was washed and 50 μL PBST was added to the wells in row B down to row H. Then, 62.5 μL of the 1 μM compound dilutions were added to the wells of row A. From row A, 12.5 μL of the compound solution was removed and added to row B with mixing and this process of 5-fold dilutions was continued, by row, to row G. One of the wells in row A received only PBST (62.5 μL) and this dilution series served as the no competitor control. Then, going up from row G to row A, 50 μL of b-IL-17 (biotinylated human IL-17, R&D Systems #317-ILB; 20 nM) was added to all wells. Row H received 50 μL of PBST and served as the blank row, i.e., no compound and no b-IL-17. The plate was then incubated for 30 minutes at room temperature on the shaker.
After the wash, 100 μL Streptavidin-Horseradish Peroxidase (SA-HRP) (KPL #14-30-00) at 25 ng/mL in PBST was added to each well in the plate and the plate incubated for 30 minutes at room temperature followed by wash and 100 μL SureBlue™ TMB (KPL #52-00-03). After sufficient color development (approx 3-6 minutes), the reaction was fixed by the addition of 100 μL/well 0.5 N HCl and absorbance was measured at 450 nm on a BioTek Synergy 2 plate reader. The absorbances of ‘no competitor’ control and blank control should not exceed 1.5 A.U. and 0.06 A.U., respectively.
as §1, with “Data was” for “Data were”

[3] = test system: IL-17A induced secretion of IL-6 in primary human RASF cells; assay: Inhibition of IL17A induced secretion of IL6 in human rheumatoid arthritis synovial fibroblast (RASF) cells; conditions: read-out: RASF
Method: This assay was used to determine the extent of inhibition of IL-17A induced secretion of IL-6 in primary human rheumatoid synovial fibroblast (RASF) cells by compounds of the invention. IL-17A is known to stimulate IL-6 production in RASF cells.
Low passage (passage 2-8) Primary human RASF cells (Asterand) were maintained in maintenance medium. Cells were detached from flasks by tryptic digestion and the cell density of the suspension determined. To each well of a 96 well culture plate was added 100 μL of seeding medium containing 50,000 cells/mL and the plate incubated overnight in a humidified 37° C., 5% CO2 incubator. The medium was replaced with fresh assay medium and cells were incubated for additional 5 hours in a humidified 37° C., 5% CO2 incubator prior to stimulation with recombinant human IL-17A (“rhIL-17A”). Prior to addition to cells, rhIL-17A (30 ng/mL) in assay medium was incubated with either DMSO alone, compounds, or anti-IL17 receptor antibody (3 μg/mL) for 1 hour at 37° C. The final concentration of DMSO in all samples was 0.25%. The final concentration of compounds varied from 0.03 μM to 25 μM.
Immediately before stimulation, cells were washed once with fresh assay medium. Then, 100 μL of the test samples was added in triplicate wells and the plates incubated for 20 hours in a humidified 37° C., 5% CO2 incubator. The assay medium from each well was collected and the IL-6 concentration in cell culture supernatants was determined by ELISA either immediately or after storage at −20° C.
A water-soluble tetrazolium salt (WST1) viability assay was immediately performed on the cells after the conditioned medium was collected using a WST1 reagent purchased from Roche. The concentration of IL-6 obtained from ELISA was normalized by the WST1 data.

DNFB-treated BALB/c mice = assay: Murine model of delayed hypersensitivity (DNFB-induced ear edema); conditions: for Reduction in edema (%) / CXCL1 Reduction (%) / IFNγ Reduction (%) / IL6 Reduction (%): po; for Reduction in edema (%): ear weight 24 h after DNFB challenge; for CXCL1 Reduction (%) / IFNγ Reduction (%) / IL6 Reduction (%): plasma
Method: We used a murine model of fluorodinitrobenzene (DNFB)-induced ear edema to test the anti-inflammatory activity of both orally dosed and intraperitoneally dosed exemplary compounds of the invention. BALB/c mice (Harlan Sprague-Dawley, Inc., male, 6-8 weeks old) were topically treated on their shaved abdomen with 30 μL of 0.5% 1-fluoro-2,4-dinitrobenzene (DNFB) (4:1 acetone:olive oil) once on Day 0 and once on Day 1.
For oral dosing (“PO”), exemplary compounds of the invention were either suspended at 3 mg/mL in 20% Cremophor EL (Sigma) (20:80; Cremophor:water) or dissolved at 1 mg/mL or 3 mg/mL in D-α-tocopherol polyethylene glycol 1000 succinate (TPGS; Sigma)/PEG-400/water (20:60:20). For intraperitoneal dosing (“IP”), exemplary compounds of the invention were dissolved in DMSO at a concentration of 5 mg/mL. On day 7, the test compound was administered (PO at either 10 mg/kg or 30 mg/kg; IP at 1, 3, or 10 mg/kg) to DNFB-treated mice. Commercially available anti-mouse IL-17A (BioLegend) administered intraperitoneally at 5 mg/kg in PBS was used as a positive control. Thirty minutes later, 20 μL of 0.2% DNFB was applied to the right ear of animals and vehicle ([…]:olive oil) was applied to the left ear. One and four hours after DNFB challenge, a subset of mice was exsanguinated and plasma prepared from the blood. Twenty-four hours after challenge, the remaining mice were euthanized, and their ears were removed and weighed to determine the amount of edema. Plasma was assayed for interleukin-6, TNF-α, CXCL1, and interferon-γ concentrations using commercially-available assays.

[4] = test system: murine collagen-induced arthritis; assay: Mouse collagen-induced arthritis (CIA) model; conditions: orally 30 mg/kg in 20% Cremophor EL
Method: Exemplary compounds of the invention were evaluated in a murine CIA model. […] mice (10/group) were anaesthetized with Isoflurane, shaved at the base of the tail, and injected intradermally with 150 μL of Freund's Complete Adjuvant (Sigma) containing bovine type II collagen (Elastin Products, Owensville, Mo.) (2 mg/mL) at the base of the tail on day 0 and again on day 21. On study days 24-25, onset of arthritis occurred and mice were randomized into treatment groups. Randomization into each group was done after swelling was obviously established in at least one paw (score of 1), and attempts were made to ensure approximately equal mean scores of 0.25 across the groups at the time of enrollment. Once a day oral treatment with 10 or 30 mg/kg of test compound in 20% Cremophor EL was initiated after enrollment and continued once a day as indicated through arthritis day 10. Mice were terminated on day 11. Clinical scores were calculated for each of the paws (right front, left front, right rear, and left rear) on arthritis days 1-11 and the results were summarized as a reduction in clinical arthritis score for all paws over the time period of dosing.

Compound: O=C1CNC(=O)[C@@H](Cc2ccc(NC(=O)[C@H](CC3CC3)NC(=O)Cc3ccccc3)cc2)NC(=O)CC2(CCCC2)CC(=O)NCCCCCN1
IC50 [1]: 100 to 1000 nM
IC50 [2]: < 100 nM

Compound: NC(=O)CC[C@H]1NC(=O)[C@@H](Cc2ccc(NC(=O)[C@H](Cc3ccccc3Cl)NC(=O)Cc3ccc(F)cc3)cc2)NC(=O)CC2(CCCC2)CC(=O)N[C@H](C(=O)O)CCCCNC1=O
IC50 [2]: < 100 nM
IC50 [3]: < 100 nM

Compound: O=C1CNC(=O)[C@@H](Cc2ccc(NC(=O)[C@H](Cc3ccccc3Cl)NC(=O)Cc3ccccc3)cc2)NC(=O)CC2(CCCC2)CC(=O)OCCCCCN1
IC50 [1]: < 100 nM
IC50 [3]: > 10000 nM

The next lines start with results.

IC50 [2]: < 100 nM
Compound: C[C@H]1NC(=O)[C@@H](Cc2ccc(NC(=O)[C@H](Cc3ccccc3Cl)NC(=O)Cc3ccc(F)cc3)cc2)NC(=O)CCC2(CCCC2)C(=O)NCCCCCNC1=O

IC50 [2]: < 100 nM
Compound: C[C@H]1NC(=O)[C@@H](Cc2ccc(NC(=O)[C@H](Cc3ccccc3Cl)NC(=O)Cc3ccc(F)cc3)cc2)NC(=O)CC2(CCCC2)CC(=O)NCCCCCNC1=O
IC50 [3]: 100 to 1000 nM
Reduction in edema (%) (DNFB-treated BALB/c mice; 3 mg/kg): 9.7%
CXCL1 Reduction (%) (DNFB-treated BALB/c mice; 3 mg/kg): 25.9%
IFNγ Reduction (%) (DNFB-treated BALB/c mice; 3 mg/kg): 9.3%
IL6 Reduction (%) (DNFB-treated BALB/c mice; 3 mg/kg): 6.5%
Reduction in edema (%) (DNFB-treated BALB/c mice; 10 mg/kg): 23.1%
CXCL1 Reduction (%) (DNFB-treated BALB/c mice; 10 mg/kg): 44.6%
IFNγ Reduction (%) (DNFB-treated BALB/c mice; 10 mg/kg): 29.5%
IL6 Reduction (%) (DNFB-treated BALB/c mice; 10 mg/kg): 22.5%
Reduction in edema (%) (DNFB-treated BALB/c mice; 30 mg/kg): 67.3%
CXCL1 Reduction (%) (DNFB-treated BALB/c mice; 30 mg/kg): 87.0%
IFNγ Reduction (%) (DNFB-treated BALB/c mice; 30 mg/kg): 82.9%
IL6 Reduction (%) (DNFB-treated BALB/c mice; 30 mg/kg): 70.8%

IC50 [2]: < 100 nM
Compound: NC(=O)CC[C@H]1NC(=O)[C@@H](Cc2ccc(NC(=O)[C@H](Cc3ccccc3Cl)NC(=O)Cc3ccc(CO)cc3)cc2)NC(=O)CC2(CCCC2)CC(=O)N[C@H](C(=O)O)CCCCNC1=O
IC50 [3]: < 100 nM

IC50 [2]: < 100 nM
Compound: O=C1CC2(CCCC2)CC(=O)N[C@H](Cc2ccc(NC(=O)[C@H](Cc3ccccc3Cl)NC(=O)Cc3cccc(O)c3)cc2)C(=O)NCCOCCOCCN1
IC50 [3]: 100 to 1000 nM
decrease in IL-6, IFN-γ, CXCL-1, and edema (DNFB-treated BALB/c mice; administered orally in 20% Cremophor vehicle, FIG. 3): effective, dose-dependent decrease
edema and biomarker suppression relative to anti-IL-17A antibody (DNFB-treated BALB/c mice; oral 30 mg/kg vs anti-IL-17A antibody 5 mg/kg i.p.): equivalent to anti-IL-17A antibody
oral activity in TPGS-PEG400 oral formulation relative to Cremophor (DNFB-treated BALB/c mice; oral, FIG. 4 vs FIG. 3): improved the oral activity
IL-6, IFN-γ, CXCL-1, and edema as compared to water, 20% Cremophor vehicle or TPGS/PEG400/Water vehicle alone (DNFB-treated BALB/c mice; orally 10 mg/kg in TPGS/PEG400/Water vehicle, FIG. 4): decreased
Reduction in edema (%) (DNFB-treated BALB/c mice; 3 mg/kg): 7.7%
CXCL1 Reduction (%) (DNFB-treated BALB/c mice; 3 mg/kg): −17.0%
IFNγ Reduction (%) (DNFB-treated BALB/c mice; 3 mg/kg): 29.2%
IL6 Reduction (%) (DNFB-treated BALB/c mice; 3 mg/kg): 9.3%
Reduction in edema (%) (DNFB-treated BALB/c mice; 10 mg/kg): 36.7%
CXCL1 Reduction (%) (DNFB-treated BALB/c mice; 10 mg/kg): 31.0%
IFNγ Reduction (%) (DNFB-treated BALB/c mice; 10 mg/kg): 35.6%
IL6 Reduction (%) (DNFB-treated BALB/c mice; 10 mg/kg): 35.9%
Reduction in edema (%) (DNFB-treated BALB/c mice; 30 mg/kg): 66.7%
CXCL1 Reduction (%) (DNFB-treated BALB/c mice; 30 mg/kg): 64.3%
IFNγ Reduction (%) (DNFB-treated BALB/c mice; 30 mg/kg): 67.7%
IL6 Reduction (%) (DNFB-treated BALB/c mice; 30 mg/kg): 66.5%
mean Clinical Arthritis Score over time as compared to the vehicle control ([4]; FIG. 6): reduced
reduction of Clinical Arthritis Score, all paws ([4]; FIG. 7): 11%
effect on histological parameters ([4]; FIG. 8): little effect
overall effect on histological parameters ([4]; FIG. 9): 5%
